Amino acid sequences for entries named in this document (tags omitted).
UniProt P40763, whole entry: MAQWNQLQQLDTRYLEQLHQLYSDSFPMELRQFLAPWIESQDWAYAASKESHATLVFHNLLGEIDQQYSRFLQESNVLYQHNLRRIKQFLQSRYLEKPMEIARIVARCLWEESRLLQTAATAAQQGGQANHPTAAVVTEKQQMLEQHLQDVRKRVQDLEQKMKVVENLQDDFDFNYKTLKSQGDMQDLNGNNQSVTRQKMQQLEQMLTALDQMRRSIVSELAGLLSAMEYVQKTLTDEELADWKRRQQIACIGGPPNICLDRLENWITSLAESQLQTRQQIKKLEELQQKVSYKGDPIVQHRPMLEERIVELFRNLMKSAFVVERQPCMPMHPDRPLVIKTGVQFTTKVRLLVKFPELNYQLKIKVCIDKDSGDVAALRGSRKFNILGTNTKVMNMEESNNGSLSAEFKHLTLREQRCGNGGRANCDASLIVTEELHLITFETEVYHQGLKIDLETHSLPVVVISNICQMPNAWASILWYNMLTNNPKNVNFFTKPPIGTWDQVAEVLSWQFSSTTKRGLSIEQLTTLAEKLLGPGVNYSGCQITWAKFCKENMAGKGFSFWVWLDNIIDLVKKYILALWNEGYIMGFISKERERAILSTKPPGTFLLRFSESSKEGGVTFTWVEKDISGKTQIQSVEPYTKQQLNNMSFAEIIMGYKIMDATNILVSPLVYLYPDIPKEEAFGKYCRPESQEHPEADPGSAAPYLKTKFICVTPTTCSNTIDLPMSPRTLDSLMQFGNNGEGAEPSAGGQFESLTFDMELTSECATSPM

According to ChEMBL document CHEMBL5614424, “Natural Product-Inspired Discovery of Naphthoquinone-Furo-Piperidine Derivatives as Novel STAT3 Inhibitors for the Treatment of Triple-Negative Breast Cancer” (J Med Chem, 2024):

Biological target: Signal transducer and activator of transcription 3 (Homo sapiens) (UniProt P40763)
Assay: Inhibition of STAT3 activation in human MDA-MB-231 cell assessed as decrease in phosphorylated STAT1 (Tyr727) level at 2.5 uM measured after 24 hrs by Western blot analysis
Format: cell-based

inhibition: inactive
SMILES: CC(=O)c1cc2c(o1)C(=O)c1ccccc1C2=O [NAPABUCASIN]

Calls of active or inactive are those of the source. The calls are words filed in the database; no cut-off is given here.
